Laboratory results as given in PubChem BioAssay AID2247 (Johns Hopkins Ion Channel Center, 2010).
The entries are a selection whose mix differs from that of the whole data set. Active and inactive are the calls of the source.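 How the source made its calls: active means B-score over 3 SD under the library average, no early fluorescence shift, positive overall ratio signal; inactive means the rest.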

Amino acid sequences for entries named in this document (tags omitted).
UniProt Q9QUQ5, whole entry: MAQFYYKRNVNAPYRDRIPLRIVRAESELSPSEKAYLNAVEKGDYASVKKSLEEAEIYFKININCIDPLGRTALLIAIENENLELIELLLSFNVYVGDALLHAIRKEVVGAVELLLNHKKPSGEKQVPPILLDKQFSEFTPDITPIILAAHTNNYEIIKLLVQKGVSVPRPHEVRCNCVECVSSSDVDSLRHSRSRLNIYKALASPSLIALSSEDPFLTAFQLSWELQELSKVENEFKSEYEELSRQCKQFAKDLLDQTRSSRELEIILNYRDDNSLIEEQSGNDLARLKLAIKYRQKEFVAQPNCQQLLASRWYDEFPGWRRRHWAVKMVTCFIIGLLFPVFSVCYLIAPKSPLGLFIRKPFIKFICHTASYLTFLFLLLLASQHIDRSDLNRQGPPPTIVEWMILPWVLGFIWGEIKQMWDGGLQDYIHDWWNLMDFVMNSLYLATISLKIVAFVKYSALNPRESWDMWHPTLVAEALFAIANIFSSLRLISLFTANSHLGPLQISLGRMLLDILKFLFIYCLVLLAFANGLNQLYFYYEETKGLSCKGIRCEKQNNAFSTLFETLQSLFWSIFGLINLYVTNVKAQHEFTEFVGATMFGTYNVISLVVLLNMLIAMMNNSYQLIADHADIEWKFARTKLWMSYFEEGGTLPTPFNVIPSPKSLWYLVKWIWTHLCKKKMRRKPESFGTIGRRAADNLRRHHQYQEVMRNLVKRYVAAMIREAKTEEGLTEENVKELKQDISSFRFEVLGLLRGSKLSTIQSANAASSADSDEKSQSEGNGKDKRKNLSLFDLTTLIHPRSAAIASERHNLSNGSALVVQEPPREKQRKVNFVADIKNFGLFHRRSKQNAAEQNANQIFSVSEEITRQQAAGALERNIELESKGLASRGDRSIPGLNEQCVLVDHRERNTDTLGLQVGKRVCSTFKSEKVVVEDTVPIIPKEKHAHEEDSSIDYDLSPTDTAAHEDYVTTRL

Target: Short transient receptor potential channel 4 (Mus musculus) (UniProt Q9QUQ5)
Experiment: blockers of DAMGO-evoked TRPC4 calcium flux – Fluo4 calcium, HEK293 TRPC4beta/mu-opioid cells, primary screen (AID 2247)
Conditions: at 10 µM

Structure (SMILES) | outcome
CC(C)(C)C(=O)NC(Sc1ccncn1)C(Cl)(Cl)Cl (centres undefined) | inactive
O=[N+]([O-])c1ncn(CCn2ncnc2[N+](=O)[O-])n1 | inactive
O=[N+]([O-])c1cccc(NC2=NCC(CBr)S2)c1 (centres undefined) | inactive
O=C(O)CNc1ccc([As](=O)(O)O)cc1 | inactive
Nc1ccc2c(ccc3cccnc32)n1.O=[N+]([O-])c1cc([N+](=O)[O-])c(O)c([N+](=O)[O-])c1 | inactive
O=C(Nc1cc([As](=O)(O)O)ccc1O)c1ccccc1 | inactive
CCOC(=O)c1ccc(NP(C)(=O)Oc2ccc(Cl)cc2)cc1 (centres undefined) | inactive
CP(=O)(OC12CC3CC(CC(C3)C1)C2)OC12CC3CC(CC(C3)C1)C2 | inactive
C[N+]1=C2C=CC=CC=C2SC12C([N+](=O)[O-])=CC([N+](=O)[O-])=C[C-]2[N+](=O)[O-] (centres undefined) | inactive
COc1ccccc1OP(C)(=O)Nc1ccccc1Br (centres undefined) | inactive
Nc1ccc([As](=O)(O)c2ccc(N)cc2)cc1 | inactive
CC(C)(C)c1ccc(OP(C)(=O)O)cc1 | inactive
CP(=O)(Nc1ccc(Cl)cc1)Oc1ccc(F)cc1 (centres undefined) | inactive
CCN(/C(=N/P(=O)(N1CCOCC1)N1CCOCC1)N1CCOCC1)c1ccc(OC)cc1 | inactive
CN(C)C(=O)OCCc1n(C)cc[n+]1C | inactive
CC(C)=N/N=C(\N)N[N+](=O)[O-] | inactive
CN(C)C(=O)c1c([N+](=O)[O-])cc([N+](=O)[O-])cc1[N+](=O)[O-] | inactive
CC1CCN(C(=O)Oc2c(Cl)cc(Cl)c3cccnc23)CC1 | inactive
COc1ccc(OP(C)(=O)Nc2ccc(Br)cc2)cc1 (centres undefined) | inactive
COc1ccc(C2=NCC(CBr)S2)cc1 (centres undefined) | inactive
CCN(CC)CC(O)COC(=O)C(O)(c1ccccc1)C1CCCCC1 (centres undefined) | inactive
O=C(OCCCN1CCCC1)C(O)(c1ccccc1)C1CCCCC1 (centres undefined) | inactive
CC(=O)N1C2C3N(C(C)=O)C1C1N(C(C)=O)C(C(N1C(C)=O)N3C(C)=O)N2C(C)=O | inactive
O=[N+]([O-])c1cccc2n[nH]nc12 | inactive
COc1ccccc1OP(C)(=O)Nc1c(C)n(C)n(-c2ccccc2)c1=O (centres undefined) | inactive

Structure (SMILES) | outcome
CCc1ccc(OP(C)(=O)Nc2cccnc2)cc1 (centres undefined) | inactive
O=[N+]([O-])c1cc([N+](=O)[O-])c(CCNc2ccccc2)c([N+](=O)[O-])c1 | inactive
CCc1nc2c(n1)c1c(non1O)c1c2no[n+]1[O-] | inactive
CP(=O)(Oc1ccccc1)N1CCOC1=O (centres undefined) | inactive
Cc1ccc(NP(=O)(Oc2ccccc2)Oc2ccccc2)nc1 | inactive
Nc1cc(N)c2nonc2c1[N+](=O)[O-] | inactive
Cc1c(NP(C)(=O)Oc2ccc(C(C)C)cc2)c(=O)n(-c2ccccc2)n1C (centres undefined) | inactive
O=[N+]([O-])c1cc([N+](=O)[O-])c(Nc2ccccn2)c([N+](=O)[O-])c1 | inactive
CC(C)CC(=O)NC(Sc1ccc(Cl)cc1)C(Cl)(Cl)Cl (centres undefined) | inactive
O=C(NC(Sc1ccncn1)C(Cl)(Cl)Cl)c1ccccc1 (centres undefined) | inactive
Cc1c2non([O-])c-2c(C)[n+](=O)[n+]1[O-] | inactive
Oc1ccccc1CNc1ccccn1 | inactive
COc1ccccc1OP(C)(=O)Nc1ccc(C)cc1C (centres undefined) | inactive
CP(=O)(Nc1ccccn1)Oc1ccccc1 (centres undefined) | inactive
CCc1ccc(OP(C)(=O)O)cc1 | inactive
NC(=O)c1cc([N+](=O)[O-])cc([N+](=O)[O-])c1N | inactive
Cc1ccc(N/C(=N/P(=O)(N2CCOCC2)N2CCOCC2)N2CCOCC2)cc1 | inactive
COc1ccccc1OP(C)(=O)Nc1ccc(Br)cc1 (centres undefined) | inactive
Cc1ccc(OP(=O)(Nc2nccs2)Oc2ccc(C)cc2)cc1 | inactive
COc1ccccc1OP(=O)(Nc1ccc(C)cn1)Oc1ccccc1OC | inactive
COc1ccc(OP(C)(=O)Nc2ccccn2)cc1 (centres undefined) | inactive
CN1CCCC(OC(=O)C(c2ccccc2)c2ccccc2)C1 (centres undefined) | inactive
CN(C)CCOC(=O)C(O)(c1ccccc1)C1CCCC1 (centres undefined) | inactive
Clc1ccc(Cl)c(NC2=NCC(CBr)S2)c1 (centres undefined) | inactive
Cc1nc2ccc3ccccc3c2o1.O=[N+]([O-])c1cc([N+](=O)[O-])c(O)c([N+](=O)[O-])c1 | inactive

Structure (SMILES) | outcome
O=[N+]([O-])c1cc([N+](=O)[O-])c(CCN2CCOCC2)c([N+](=O)[O-])c1 | inactive
CCN(N=Nc1nonc1N)c1nonc1N | inactive
CP(=O)(Nc1ccc(Cl)cc1Cl)Oc1ccccc1 (centres undefined) | inactive
CP(=O)(OCCOc1ccccc1)OCCOc1ccccc1 | inactive
Nc1cccc2ccc([As](=O)(O)O)cc12 | inactive
CC(=O)Nc1ccc([As](=O)(O)O)cc1 | inactive
O=C(O)c1ccccc1[As](=O)(O)O | inactive
O=P(Nc1nc2ccc(Cl)cc2s1)(c1ccccc1)c1ccccc1 | inactive
Cc1cc(C)cc(OP(C)(=O)Nc2cccc(C(F)(F)F)c2)c1 (centres undefined) | inactive
COc1ccccc1OP(C)(=O)Nc1ccc(C)c(C)c1 (centres undefined) | inactive
CN(C(=O)Cc1ccc(Cl)c(Cl)c1)[C@H]1CCCC[C@@H]1N1CCCC1 | inactive
Cc1ccc(NP(=O)(Oc2ccccc2F)Oc2ccccc2F)nc1 | inactive
Cc1cc(SC(NC(=O)c2ccc(F)cc2)C(Cl)(Cl)Cl)ncn1 (centres undefined) | inactive
CCOP(=O)(Nc1ccccc1)OCC | inactive
COc1ccc(OP(C)(=O)Nc2ccccc2Br)cc1 (centres undefined) | inactive
CC(=O)NC(SC(=S)N(CC(C)C)CC(C)C)C(Cl)(Cl)Cl (centres undefined) | inactive
Cc1ccc(OP(=O)(Nc2ccccn2)Oc2ccc(C)cc2)cc1 | inactive
COC(=O)c1cc2c(s1)N=C(c1ccccc1)N(C)P2(=O)N1CCOCC1 (centres undefined) | inactive
CCC(=O)N1C2C3N(C(=O)CC)C1C1N(C(=O)CC)C(C(N1C(=O)CC)N3C(=O)CC)N2C(=O)CC | inactive
CCN(CC)CCCOC(=O)C(O)(c1ccccc1)C1CCCCC1 (centres undefined) | inactive
O=C(OC1CN2CCC1CC2)c1ccccc1 (centres undefined) | inactive
CP(=O)(Nc1ccccc1)Oc1ccc(F)cc1 (centres undefined) | inactive
CCCCCOc1ccc(NP(C)(=O)Oc2ccc(Cl)cc2Cl)cc1 (centres undefined) | inactive
O=[N+]([O-])c1cc([N+](=O)[O-])c(OC2CCCCC2O)c([N+](=O)[O-])c1 (centres undefined) | inactive
